Biological target: matriptase (Homo sapiens (Human), UniProt Q9Y5Y6)
Experiment: Determination of the matriptase inhibition (chromogenic substrate CH3SO2-D-Cha-Gly-Arg-pNA, Dixon Ki)
Assay type: biochemical
Settings: 25° C., pH 8.0; means of at least two determinations
Protocol: Determination of the Matriptase Inhibition
To determine the inhibition effect, 200 μl Tris buffer (inhibitor contains 0.05 M, 0.154 M NaCl, 5% ethanol, pH 8.0), 25 μl substrate (CH3SO2-D-Cha-Gly-Arg-pNA; 2 and 1 mM) and 50 μl matriptase (0.5 μg/ml) were incubated at 25° C. After 3 min the reaction was halted through the addition of 25 μl acetic acid (50%) and the Absorption determined at 405 nm by means of a Microplate Reader (Multiscan Ascent from the company Thermo Electron Corporation). The Ki values were calculated according to Dixon (Biochem. J. 55, 170-171, 1953) through linear regression by means of a computer program. The Ki-values are the means of at least two determinations.
Ki value for the inhibition of matriptase in nM (n.d.=not determined)

The chains behind the UniProt entries cited, without tags or fusion partners. Where a name states a change or a piece, a line headed by the entry shows the natural chain unless it says otherwise.
UniProt Q9Y5Y6: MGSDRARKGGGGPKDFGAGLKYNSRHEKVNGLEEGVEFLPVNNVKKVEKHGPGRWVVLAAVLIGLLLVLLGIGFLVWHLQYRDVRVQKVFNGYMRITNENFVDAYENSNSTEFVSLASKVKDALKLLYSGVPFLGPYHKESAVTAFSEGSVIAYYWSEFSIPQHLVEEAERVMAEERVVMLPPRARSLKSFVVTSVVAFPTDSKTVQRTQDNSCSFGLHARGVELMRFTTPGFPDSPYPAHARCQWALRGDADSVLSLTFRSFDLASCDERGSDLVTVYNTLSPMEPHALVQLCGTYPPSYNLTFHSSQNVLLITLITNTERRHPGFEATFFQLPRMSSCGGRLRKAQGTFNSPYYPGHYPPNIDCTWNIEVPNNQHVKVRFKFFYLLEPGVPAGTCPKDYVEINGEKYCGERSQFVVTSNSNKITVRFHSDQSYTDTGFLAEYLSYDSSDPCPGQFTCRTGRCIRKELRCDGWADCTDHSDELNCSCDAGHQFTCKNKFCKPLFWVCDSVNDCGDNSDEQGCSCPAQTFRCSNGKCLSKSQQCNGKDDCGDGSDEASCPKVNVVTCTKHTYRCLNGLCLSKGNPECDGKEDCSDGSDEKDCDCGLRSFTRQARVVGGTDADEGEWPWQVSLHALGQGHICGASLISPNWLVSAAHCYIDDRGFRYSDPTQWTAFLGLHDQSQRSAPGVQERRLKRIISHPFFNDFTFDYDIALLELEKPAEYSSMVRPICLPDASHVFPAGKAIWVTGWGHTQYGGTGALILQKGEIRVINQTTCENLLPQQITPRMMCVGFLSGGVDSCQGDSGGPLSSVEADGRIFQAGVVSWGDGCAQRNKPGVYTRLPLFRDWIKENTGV

Substance: CH3-PEG1000-CH2—CH2—CO-Dap-3-NH-phenyl sulfonyl-Phe(3-Am)-4-(2-amino ethyl)-piperidide [Inhibitor 49]
- Ki: 21.8 nM

From US8569313B2, “Meta-substituted phenyl sulfonyl amides of secondary amino acid amides, the production thereof, and use thereof as matriptase inhibitors” (The Medicines Company (Leipzig) GmbH, priority 2007, dated 2013)
